Legend:
Assay in all cases: radiometric filter-binding kinase assay, Kinase HotSpot
Settings in all cases: compound 0.5 µM; ATP 10 µM
LRRK2 (human) = LRRK2 (human) (UniProt Q5S007)
CLK1 (human) = CLK1 (human) (UniProt P49759)
PKN2 (human) = PKN2 (human) (UniProt Q16513)
PIM2 (human) = PIM2 (human) (UniProt Q9P1W9)
FER (human) = FER (human) (UniProt P16591)
CHUK (human) = CHUK (human) (UniProt O15111)
RPS6KA3 KD1 KD2 (human) = RPS6KA3 KD1 KD2 (human) (UniProt P51812)
LCK (human) = LCK (human) (UniProt P06239)
PRKX (human) = PRKX (human) (UniProt P51817)
PRKD3 (human) = PRKD3 (human) (UniProt O94806)
[1] = target: TYK2 JH1 catalytic (human) (UniProt P29597)
EPHA4 (human) = EPHA4 (human) (UniProt P54764)
TEK (human) = TEK (human) (UniProt Q02763)
FGFR3 (human) = FGFR3 (human) (UniProt P22607)
EPHA7 (human) = EPHA7 (human) (UniProt Q15375)
MAP3K2 (human) = MAP3K2 (human) (UniProt Q9Y2U5)
MAPK9 (human) = MAPK9 (human) (UniProt P45984)
MUSK (human) = MUSK (human) (UniProt O15146)
SRPK1 (human) = SRPK1 (human) (UniProt Q96SB4)
CAMK1G (human) = CAMK1G (human) (UniProt Q96NX5)
ZAP70 (human) = ZAP70 (human) (UniProt P43403)
STK38 (human) = STK38 (human) (UniProt Q15208)
GRK4 (human) = GRK4 (human) (UniProt P32298)
VRK1 (human) = VRK1 (human) (UniProt Q99986)
SRPK2 (human) = SRPK2 (human) (UniProt P78362)
MAP2K1 (human) = MAP2K1 (human) (UniProt Q02750)
NUAK1 (human) = NUAK1 (human) (UniProt O60285)
CSF1R (human) = CSF1R (human) (UniProt P07333)
LIMK1 (human) = LIMK1 (human) (UniProt P53667)
PAK7 (human) = PAK7 (human) (UniProt Q9P286)
GSG2 (human) = GSG2 (human) (UniProt Q8TF76)
ERBB4 (human) = ERBB4 (human) (UniProt Q15303)
INSRR (human) = INSRR (human) (UniProt P14616)
PRKCE (human) = PRKCE (human) (UniProt Q02156)
PAK6 (human) = PAK6 (human) (UniProt Q9NQU5)
KIT (human) = KIT (human) (UniProt P10721)
CHEK2 (human) = CHEK2 (human) (UniProt O96017)
OXSR1 (human) = OXSR1 (human) (UniProt O95747)
TNK2 (human) = TNK2 (human) (UniProt Q07912)
TGFBR1 (human) = TGFBR1 (human) (UniProt P36897)
FGR (human) = FGR (human) (UniProt P09769)
FYN (human) = FYN (human) (UniProt P06241)

Chains of the proteins cited; added tags and fusions are not shown. Lines headed by an entry give the natural chain unless they say otherwise; changes in a name come on top.
UniProt P49759: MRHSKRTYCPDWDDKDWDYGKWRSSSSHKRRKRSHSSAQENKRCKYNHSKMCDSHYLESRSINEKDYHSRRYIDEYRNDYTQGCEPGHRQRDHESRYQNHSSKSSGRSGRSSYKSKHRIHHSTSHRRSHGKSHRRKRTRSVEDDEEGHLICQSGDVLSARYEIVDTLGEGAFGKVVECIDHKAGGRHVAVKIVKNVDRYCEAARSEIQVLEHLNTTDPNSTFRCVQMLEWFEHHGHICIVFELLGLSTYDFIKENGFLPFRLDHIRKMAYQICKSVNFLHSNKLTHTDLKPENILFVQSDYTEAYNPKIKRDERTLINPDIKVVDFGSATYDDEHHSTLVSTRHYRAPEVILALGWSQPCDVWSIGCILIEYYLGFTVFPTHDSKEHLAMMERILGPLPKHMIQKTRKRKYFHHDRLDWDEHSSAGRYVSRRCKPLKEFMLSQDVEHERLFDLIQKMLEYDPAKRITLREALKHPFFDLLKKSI
UniProt Q9P1W9: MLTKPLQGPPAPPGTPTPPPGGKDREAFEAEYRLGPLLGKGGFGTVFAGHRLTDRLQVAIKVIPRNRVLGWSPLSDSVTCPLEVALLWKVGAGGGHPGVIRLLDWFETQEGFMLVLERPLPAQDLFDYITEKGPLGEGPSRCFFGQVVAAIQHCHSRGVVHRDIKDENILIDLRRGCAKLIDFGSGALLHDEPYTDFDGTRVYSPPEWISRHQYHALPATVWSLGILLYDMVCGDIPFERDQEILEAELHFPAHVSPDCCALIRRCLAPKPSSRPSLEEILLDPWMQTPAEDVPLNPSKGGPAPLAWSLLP
UniProt P06239: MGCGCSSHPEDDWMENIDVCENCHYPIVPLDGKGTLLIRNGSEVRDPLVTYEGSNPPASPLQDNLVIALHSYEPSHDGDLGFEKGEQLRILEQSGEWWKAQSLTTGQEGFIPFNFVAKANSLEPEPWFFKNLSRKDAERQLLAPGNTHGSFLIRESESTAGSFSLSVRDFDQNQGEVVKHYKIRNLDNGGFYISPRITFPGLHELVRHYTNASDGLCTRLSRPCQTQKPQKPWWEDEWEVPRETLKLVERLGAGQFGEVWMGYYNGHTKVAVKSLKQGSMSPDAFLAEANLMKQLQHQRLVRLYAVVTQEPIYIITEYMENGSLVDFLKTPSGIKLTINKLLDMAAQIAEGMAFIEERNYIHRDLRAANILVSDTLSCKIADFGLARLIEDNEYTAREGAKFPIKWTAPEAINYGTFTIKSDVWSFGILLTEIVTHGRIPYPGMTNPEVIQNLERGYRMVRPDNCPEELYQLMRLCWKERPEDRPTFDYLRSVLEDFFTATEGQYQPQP
UniProt P51817: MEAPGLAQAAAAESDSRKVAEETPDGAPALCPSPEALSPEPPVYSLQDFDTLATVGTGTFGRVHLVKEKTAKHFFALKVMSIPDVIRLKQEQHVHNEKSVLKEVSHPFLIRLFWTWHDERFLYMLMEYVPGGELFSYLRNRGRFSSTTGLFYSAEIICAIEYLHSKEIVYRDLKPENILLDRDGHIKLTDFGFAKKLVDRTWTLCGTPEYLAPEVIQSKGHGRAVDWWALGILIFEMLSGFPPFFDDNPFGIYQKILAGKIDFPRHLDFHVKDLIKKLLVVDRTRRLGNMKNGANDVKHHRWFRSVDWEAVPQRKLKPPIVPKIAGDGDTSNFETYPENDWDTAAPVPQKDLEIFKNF
UniProt Q15375: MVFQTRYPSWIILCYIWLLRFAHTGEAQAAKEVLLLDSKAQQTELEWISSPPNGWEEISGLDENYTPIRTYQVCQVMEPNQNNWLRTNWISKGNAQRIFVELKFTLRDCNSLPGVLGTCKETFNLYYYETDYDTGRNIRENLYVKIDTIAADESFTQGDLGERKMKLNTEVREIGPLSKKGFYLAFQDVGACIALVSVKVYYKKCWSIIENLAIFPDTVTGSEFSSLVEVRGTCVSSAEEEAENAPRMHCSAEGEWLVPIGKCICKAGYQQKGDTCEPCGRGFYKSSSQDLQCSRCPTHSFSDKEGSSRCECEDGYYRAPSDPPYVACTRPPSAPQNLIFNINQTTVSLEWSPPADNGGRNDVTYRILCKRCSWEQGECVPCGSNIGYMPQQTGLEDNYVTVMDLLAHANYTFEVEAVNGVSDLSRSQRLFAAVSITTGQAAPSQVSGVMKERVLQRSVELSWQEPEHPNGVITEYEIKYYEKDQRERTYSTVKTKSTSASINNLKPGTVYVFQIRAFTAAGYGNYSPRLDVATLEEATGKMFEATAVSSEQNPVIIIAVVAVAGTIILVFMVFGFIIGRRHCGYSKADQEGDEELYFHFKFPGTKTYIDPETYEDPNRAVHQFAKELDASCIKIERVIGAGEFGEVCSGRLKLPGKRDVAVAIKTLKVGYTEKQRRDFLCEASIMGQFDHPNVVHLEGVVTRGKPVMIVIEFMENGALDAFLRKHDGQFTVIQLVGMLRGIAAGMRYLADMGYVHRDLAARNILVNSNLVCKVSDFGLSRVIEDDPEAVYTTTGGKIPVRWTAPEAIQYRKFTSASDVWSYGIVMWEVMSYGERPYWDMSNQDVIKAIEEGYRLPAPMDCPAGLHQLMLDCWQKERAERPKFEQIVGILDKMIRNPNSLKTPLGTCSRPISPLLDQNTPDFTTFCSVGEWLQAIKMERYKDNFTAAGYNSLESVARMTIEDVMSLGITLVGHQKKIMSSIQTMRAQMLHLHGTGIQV
UniProt O15146: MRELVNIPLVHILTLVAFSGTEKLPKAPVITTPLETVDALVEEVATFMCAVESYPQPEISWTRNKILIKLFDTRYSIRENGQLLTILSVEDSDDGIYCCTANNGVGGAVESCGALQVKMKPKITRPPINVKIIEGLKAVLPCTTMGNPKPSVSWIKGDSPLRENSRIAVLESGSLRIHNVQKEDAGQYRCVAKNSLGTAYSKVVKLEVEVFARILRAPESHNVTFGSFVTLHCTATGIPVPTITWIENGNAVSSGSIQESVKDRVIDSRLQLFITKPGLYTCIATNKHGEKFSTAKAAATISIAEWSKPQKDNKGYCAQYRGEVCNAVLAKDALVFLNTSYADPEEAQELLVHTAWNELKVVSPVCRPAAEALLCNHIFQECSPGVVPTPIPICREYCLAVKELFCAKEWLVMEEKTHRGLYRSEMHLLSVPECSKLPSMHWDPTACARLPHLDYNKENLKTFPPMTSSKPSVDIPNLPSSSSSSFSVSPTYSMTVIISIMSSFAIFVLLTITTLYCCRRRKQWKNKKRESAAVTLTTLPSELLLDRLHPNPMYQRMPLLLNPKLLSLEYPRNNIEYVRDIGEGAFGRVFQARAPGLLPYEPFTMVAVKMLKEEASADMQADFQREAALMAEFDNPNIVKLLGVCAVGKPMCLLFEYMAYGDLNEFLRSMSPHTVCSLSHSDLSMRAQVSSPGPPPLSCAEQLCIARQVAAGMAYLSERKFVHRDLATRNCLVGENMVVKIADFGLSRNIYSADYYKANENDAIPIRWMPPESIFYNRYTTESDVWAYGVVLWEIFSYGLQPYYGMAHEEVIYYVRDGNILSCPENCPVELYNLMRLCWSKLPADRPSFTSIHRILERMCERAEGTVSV
UniProt Q15208: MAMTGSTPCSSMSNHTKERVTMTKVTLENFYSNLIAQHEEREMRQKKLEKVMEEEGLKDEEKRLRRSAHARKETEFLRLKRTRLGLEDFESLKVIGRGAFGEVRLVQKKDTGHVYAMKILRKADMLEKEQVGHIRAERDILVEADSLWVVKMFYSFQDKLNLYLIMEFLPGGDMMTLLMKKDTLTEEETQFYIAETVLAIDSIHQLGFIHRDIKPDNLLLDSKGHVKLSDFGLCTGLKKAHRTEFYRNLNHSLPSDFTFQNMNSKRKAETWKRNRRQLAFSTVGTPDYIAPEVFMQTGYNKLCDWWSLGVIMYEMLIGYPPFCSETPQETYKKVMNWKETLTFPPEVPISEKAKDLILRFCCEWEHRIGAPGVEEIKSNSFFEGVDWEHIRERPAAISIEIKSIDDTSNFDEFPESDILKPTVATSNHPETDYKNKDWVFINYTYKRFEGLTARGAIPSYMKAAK
UniProt Q8TF76: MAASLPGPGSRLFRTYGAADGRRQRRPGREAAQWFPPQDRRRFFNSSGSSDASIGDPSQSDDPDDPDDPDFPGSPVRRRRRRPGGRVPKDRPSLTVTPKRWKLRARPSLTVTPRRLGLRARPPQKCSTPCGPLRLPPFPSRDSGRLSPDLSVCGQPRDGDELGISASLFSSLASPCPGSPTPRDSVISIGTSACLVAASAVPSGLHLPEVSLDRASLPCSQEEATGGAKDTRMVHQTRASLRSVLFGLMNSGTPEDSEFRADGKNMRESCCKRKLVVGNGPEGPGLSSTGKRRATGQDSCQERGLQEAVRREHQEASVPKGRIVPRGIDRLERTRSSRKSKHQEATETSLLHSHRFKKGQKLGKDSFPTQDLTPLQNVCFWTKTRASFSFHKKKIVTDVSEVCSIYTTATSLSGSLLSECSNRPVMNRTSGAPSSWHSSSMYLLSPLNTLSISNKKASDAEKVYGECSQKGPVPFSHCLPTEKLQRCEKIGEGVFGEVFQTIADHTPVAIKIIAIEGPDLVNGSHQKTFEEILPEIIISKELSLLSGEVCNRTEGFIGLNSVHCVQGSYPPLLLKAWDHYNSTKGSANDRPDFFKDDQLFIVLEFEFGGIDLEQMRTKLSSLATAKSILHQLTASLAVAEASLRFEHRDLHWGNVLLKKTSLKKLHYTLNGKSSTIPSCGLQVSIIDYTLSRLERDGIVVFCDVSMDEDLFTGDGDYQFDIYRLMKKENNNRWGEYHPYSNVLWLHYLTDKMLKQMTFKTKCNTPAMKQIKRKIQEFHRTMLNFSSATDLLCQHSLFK
UniProt Q02156: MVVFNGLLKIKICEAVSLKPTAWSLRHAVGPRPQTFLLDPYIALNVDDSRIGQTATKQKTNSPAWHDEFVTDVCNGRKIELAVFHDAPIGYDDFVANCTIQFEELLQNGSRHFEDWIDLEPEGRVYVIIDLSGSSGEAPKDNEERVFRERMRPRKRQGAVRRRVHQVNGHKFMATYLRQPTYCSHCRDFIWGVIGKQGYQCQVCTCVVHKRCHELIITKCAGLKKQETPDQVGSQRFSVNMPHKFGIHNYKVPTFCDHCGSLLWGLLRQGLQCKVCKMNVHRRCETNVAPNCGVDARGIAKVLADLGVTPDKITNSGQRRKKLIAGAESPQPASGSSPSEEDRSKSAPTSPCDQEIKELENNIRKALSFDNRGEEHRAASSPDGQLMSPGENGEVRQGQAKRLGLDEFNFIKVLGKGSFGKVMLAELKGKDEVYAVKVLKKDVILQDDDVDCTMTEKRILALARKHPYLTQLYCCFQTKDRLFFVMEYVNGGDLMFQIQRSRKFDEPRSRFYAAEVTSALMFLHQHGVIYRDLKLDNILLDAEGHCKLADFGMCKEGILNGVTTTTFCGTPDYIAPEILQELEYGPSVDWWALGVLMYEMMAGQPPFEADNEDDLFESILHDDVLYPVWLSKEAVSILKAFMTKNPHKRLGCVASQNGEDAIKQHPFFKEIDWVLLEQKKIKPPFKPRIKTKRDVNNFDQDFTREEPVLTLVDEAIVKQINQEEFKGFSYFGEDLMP
UniProt Q07912: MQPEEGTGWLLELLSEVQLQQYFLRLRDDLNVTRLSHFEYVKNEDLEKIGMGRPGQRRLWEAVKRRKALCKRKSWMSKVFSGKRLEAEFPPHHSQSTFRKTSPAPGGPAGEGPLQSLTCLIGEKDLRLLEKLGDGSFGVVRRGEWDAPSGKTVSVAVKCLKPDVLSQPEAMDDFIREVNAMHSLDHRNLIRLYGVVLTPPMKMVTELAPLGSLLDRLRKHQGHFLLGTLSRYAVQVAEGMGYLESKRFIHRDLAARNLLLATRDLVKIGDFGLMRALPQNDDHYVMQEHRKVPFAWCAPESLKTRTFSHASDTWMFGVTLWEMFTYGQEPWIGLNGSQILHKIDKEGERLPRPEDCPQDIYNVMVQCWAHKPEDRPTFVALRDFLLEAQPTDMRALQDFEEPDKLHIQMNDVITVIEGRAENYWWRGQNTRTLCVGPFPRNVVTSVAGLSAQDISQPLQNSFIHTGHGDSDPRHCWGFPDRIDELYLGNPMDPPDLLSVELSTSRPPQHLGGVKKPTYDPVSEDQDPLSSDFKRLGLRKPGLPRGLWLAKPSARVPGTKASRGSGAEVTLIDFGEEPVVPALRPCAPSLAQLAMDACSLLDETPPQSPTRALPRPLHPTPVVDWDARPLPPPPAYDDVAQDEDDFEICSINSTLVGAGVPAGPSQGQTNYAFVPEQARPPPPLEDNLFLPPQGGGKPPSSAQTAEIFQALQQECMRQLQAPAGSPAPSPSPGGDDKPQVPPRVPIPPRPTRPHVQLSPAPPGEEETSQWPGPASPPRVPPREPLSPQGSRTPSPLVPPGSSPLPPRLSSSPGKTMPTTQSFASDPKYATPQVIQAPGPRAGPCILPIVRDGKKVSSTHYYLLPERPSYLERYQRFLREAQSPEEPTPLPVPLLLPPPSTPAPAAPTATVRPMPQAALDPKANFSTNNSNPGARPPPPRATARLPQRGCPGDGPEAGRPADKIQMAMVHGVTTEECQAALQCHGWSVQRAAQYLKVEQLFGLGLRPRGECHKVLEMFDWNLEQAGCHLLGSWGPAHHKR

O=C1Nc2ccc3ncsc3c2/C1=C/c1c[nH]cn1
residual activity (LRRK2 (human)): 8.5% | residual activity (CLK1 (human)): 19.9% | residual activity (PKN2 (human)): 44.1% | residual activity (PIM2 (human)): 83% | residual activity (FER (human)): 77.9% | residual activity (CHUK (human)): 53.2% | residual activity (RPS6KA3 KD1 KD2 (human)): 28% | residual activity (LCK (human)): 84.8% | residual activity (PRKX (human)): 28.2% | residual activity (PRKD3 (human)): 3.58% | residual activity [1]: 12.3% | residual activity (EPHA4 (human)): 85.6% | residual activity (TEK (human)): 90.6% | residual activity (FGFR3 (human)): 34.8% | residual activity (EPHA7 (human)): 71.3% | residual activity (MAP3K2 (human)): 77.3% | residual activity (MAPK9 (human)): 45.8% | residual activity (MUSK (human)): 21.6% | residual activity (SRPK1 (human)): 108% | residual activity (CAMK1G (human)): 102% | residual activity (ZAP70 (human)): 99% | residual activity (STK38 (human)): 51% | residual activity (GRK4 (human)): 86.9% | residual activity (VRK1 (human)): 69.1% | residual activity (SRPK2 (human)): 97.8% | residual activity (MAP2K1 (human)): 87.2% | residual activity (NUAK1 (human)): 0.753% | residual activity (CSF1R (human)): 58.5% | residual activity (LIMK1 (human)): 61.3% | residual activity (PAK7 (human)): 87.8% | residual activity (GSG2 (human)): 5.68% | residual activity (ERBB4 (human)): 94.8% | residual activity (INSRR (human)): 100% | residual activity (PRKCE (human)): 19.4% | residual activity (PAK6 (human)): 92.8% | residual activity (KIT (human)): 46.8% | residual activity (CHEK2 (human)): 49.8% | residual activity (OXSR1 (human)): 79.8% | residual activity (TNK2 (human)): 71.2% | residual activity (TGFBR1 (human)): 103% | residual activity (FGR (human)): 62.8% | residual activity (FYN (human)): 75.1%

From the kinase profiling compilation of Christmann-Franck et al. (2016)
